The values below come from BindingDB's records for doi:10.1038/nchembio.2140 (Friedrich Miescher Institute For Biomedical Research, 2016).

Protein sequences, listed by entry. Tags and fused reporters are not part of them. Lines headed by an entry give the natural chain unless they say otherwise; changes in a name come on top.
UniProt Q9UQL6: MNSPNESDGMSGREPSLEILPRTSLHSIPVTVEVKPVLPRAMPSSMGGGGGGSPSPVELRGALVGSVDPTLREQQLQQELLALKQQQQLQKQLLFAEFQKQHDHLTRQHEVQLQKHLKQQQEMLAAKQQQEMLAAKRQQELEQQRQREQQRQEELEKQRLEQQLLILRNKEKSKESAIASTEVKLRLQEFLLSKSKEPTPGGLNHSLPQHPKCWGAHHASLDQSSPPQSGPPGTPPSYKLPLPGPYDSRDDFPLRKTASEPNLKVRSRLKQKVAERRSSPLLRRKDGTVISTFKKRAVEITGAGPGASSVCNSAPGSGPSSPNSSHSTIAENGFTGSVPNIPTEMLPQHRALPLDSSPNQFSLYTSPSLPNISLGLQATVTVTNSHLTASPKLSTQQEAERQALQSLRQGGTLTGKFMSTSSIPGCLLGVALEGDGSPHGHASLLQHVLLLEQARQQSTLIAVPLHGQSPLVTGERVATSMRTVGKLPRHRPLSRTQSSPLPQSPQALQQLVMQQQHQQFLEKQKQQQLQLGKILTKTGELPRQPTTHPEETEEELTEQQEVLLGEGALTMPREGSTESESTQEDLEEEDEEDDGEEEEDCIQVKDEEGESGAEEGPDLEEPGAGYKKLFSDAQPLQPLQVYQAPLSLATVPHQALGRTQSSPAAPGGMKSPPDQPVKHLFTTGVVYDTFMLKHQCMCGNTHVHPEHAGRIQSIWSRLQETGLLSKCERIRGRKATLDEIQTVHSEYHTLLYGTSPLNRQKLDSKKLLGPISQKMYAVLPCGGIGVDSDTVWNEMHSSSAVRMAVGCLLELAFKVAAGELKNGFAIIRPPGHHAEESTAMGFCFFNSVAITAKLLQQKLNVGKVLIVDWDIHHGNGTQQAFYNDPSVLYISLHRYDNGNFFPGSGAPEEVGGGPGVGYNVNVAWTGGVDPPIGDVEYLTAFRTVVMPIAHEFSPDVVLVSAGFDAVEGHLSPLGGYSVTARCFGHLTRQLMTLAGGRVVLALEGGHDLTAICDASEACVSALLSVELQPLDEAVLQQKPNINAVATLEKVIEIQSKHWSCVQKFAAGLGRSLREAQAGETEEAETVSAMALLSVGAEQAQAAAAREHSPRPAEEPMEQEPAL

Molecules are shown by their SMILES. pIC50: −log10 of the molar value.

One experiment has as its target Histone deacetylase 5 (Homo sapiens, UniProt Q9UQL6). The experiment in a line: HDAC activity assays.
The target of experiment [1] is T1, Histone deacetylase 6 [25-831] (Danio rerio, UniProt F8W4B7).
T1 construct: 25-831
T1 sequence (F8W4B7 whole entry): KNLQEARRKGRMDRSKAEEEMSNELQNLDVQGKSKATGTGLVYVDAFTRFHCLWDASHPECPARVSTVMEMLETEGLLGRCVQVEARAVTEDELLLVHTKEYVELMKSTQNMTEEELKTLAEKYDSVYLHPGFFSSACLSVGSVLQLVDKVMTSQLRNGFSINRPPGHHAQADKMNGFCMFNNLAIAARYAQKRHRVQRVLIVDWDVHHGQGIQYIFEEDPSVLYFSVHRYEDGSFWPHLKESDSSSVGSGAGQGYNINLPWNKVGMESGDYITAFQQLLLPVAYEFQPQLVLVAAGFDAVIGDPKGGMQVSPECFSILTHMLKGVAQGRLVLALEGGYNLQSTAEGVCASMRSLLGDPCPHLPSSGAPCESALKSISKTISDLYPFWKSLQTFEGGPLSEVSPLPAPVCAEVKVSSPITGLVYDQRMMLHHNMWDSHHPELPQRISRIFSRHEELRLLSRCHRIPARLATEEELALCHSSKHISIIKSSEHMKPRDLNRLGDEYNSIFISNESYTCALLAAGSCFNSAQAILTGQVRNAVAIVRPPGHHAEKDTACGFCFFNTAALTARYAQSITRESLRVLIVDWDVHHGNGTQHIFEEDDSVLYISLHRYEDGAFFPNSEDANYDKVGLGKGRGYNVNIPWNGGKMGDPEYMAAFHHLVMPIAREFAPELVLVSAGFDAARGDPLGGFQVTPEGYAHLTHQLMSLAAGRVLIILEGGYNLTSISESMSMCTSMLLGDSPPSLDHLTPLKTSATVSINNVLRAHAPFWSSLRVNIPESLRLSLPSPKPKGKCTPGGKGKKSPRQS
In words: HDAC activity assays.

`C/C(=C\[C@@H](C)/C=C/C(=O)NO)C(=O)c1ccc(N(C)C)cc1` [S-TSA] showed a pIC50 on Histone deacetylase 5 of 5.20.
In the case of `C/C(=C\[C@H](C)/C=C/C(=O)NO)C(=O)c1ccc(N(C)C)cc1` [R-TSA], the figures for the pIC50 (against Histone deacetylase 5; in experiment [1]) were 5.36 and 8.26, respectively.
